The test addresses T1, a disintegrin and metalloproteinase-17 catalytic domain (6xHis-ADAM-17cd) (UniProt P78536).
T1 construct: ADAM-17 (TACE), catalytic domain; also called TACE; tumor necrosis factor-α-converting enzyme; source: bought: Enzo Life Sciences
Kind of test: flow cytometry on cells; scFv variants or TIMP-3 displayed on yeast; soluble 6xHis-ADAM-17cd or MMP-9cd at 100 nM (legend and results; the methods say 150 nM); PBSA pH 7.4; binding read with anti-6xHis Alexa Fluor 647, expression with anti-c-Myc and Alexa Fluor 488; median binding normalised to expression. The settings on record: one partner purified. (Flow cytometry measures light scatter and fluorescence of single cells or particles in a stream.)

Amino acid sequences for entries named in this document (tags omitted). Residues count along the entry.
UniProt P78536, 215-474: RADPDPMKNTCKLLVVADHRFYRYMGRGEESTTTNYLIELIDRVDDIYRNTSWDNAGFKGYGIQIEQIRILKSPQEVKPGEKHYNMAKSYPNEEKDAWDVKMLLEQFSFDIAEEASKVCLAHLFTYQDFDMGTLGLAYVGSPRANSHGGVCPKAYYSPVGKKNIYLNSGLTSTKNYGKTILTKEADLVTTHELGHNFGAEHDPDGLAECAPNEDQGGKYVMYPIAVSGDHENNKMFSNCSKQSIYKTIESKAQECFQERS

Data on two molecules can be found in publication PMC12838881, “Engineering Single-Chain Antibody Fragment (scFv) Variants Targeting A Disintegrin and Metalloproteinase-17 (ADAM-17)” (Biomolecules, 2025).

B1: SynAb-A4 scFv displayed on yeast (scFv, V domains shown)
VH: EVQLVESGGGLVKPGGSLRLSCAASGFTFSNAWMSWVRQAPGKGLEWVGRIKSKTDGGTTDYAAPVKGRFTISRDDSKNTLYLQMNSLKTEDTAVYYCARPTSYYYFDYWGQGTLVTVSS
VL: [about 100 residues left out]FGPGTKVDIK
notes: light chain variable domain as printed; glycine-rich peptide linker between VL and VH; heavy chain variable domain as printed; CDR-H3 PTSYYY; VL-VH orientation; The printed CDR-H3 has six residues, while the text speaks of 7, 9 and 11; source: yeast surface display, S. cerevisiae RJY100, pCTCON2 vector; not shown: Aga2p, N-terminal, kept
As for B1, the binding result was “binds”.

B2: SynAb-A10 scFv displayed on yeast (scFv, V domains shown)
VH: EVQLVESGGGLVKPGGSLRLSCAASGFTFSNAWMSWVRQAPGKGLEWVGRIKSKTDGGTTDYAAPVKGRFTISRDDSKNTLYLQMNSLKTEDTAVYYCARTYASTPMLDFDYWGQGTLVTVSS
VL: [about 100 residues left out]FGPGTKVDIK
notes: light chain variable domain as printed; glycine-rich peptide linker between VL and VH; heavy chain variable domain as printed; CDR-H3 TYASTPMLD; VL-VH orientation; source: yeast surface display, S. cerevisiae RJY100, pCTCON2 vector; not shown: Aga2p, N-terminal, kept
On to B2, for which the binding result is given as “binds”.
